Data: patent publication US20220395458A1, “PREVENTION OF VISIBLE PARTICLE FORMATION IN AQUEOUS PROTEIN SOLUTIONS” (Hoffmann-La Roche Inc., priority 2019, published 2022)

Experiment: Visible particles in mAb formulations on storage
Format: physicochemical
Conditions: after 12M storage at 25° C.; particles characterized as FFA and Aluminium
Experimental: mAb1 (IgG1. Mw=145.5 kDa, pertuzumab) and mAb2 (IgG1. Mw=148 kDa, trastuzumab) were obtained from F. Hoffmann-La Roche and formulated with 1000 U/mL hyaluronidase in 20 mM HisHCl buffer pH 5.5, 105 mM Trehalose, 100 mM Sucrose, 10 mM Methionine, and 0.04% Polysorbate 20. The corresponding placebo was the same formulation without proteins. Formulations were stored at 5° C., and 25° C., for 24 months. Spiking experiments including respective controls with placebo were performed in triplicates using either inorganic salt solutions (CaCl2 and NaAlO2 in 10+1 dilution) or glass leachable's from stock solutions in 10+1 or 100+1 dilution.
Precipitation of FFA particle in a protein matrix was further studied in aged mAb1 and mAb2 solutions (22M, 5° C.) by addition of different concentrations of ‘real’ glass leachables. In this experiment, the presence of FFA were a result of PS20 degradation forming over shelf-life of the drug product. Mab1 and mAb2 were formulated in the same matrix but differ in the type of mAb (CDRs). Originating from different drug substance processes and purification processes, the PS20 degradation rates were found different (FIG. 5) as well as the type and concentrations of FFAs as a subsequent result (FIG. 6).
Products were characterized as free of visible particles before the experiment (stored for 22M at 5° C.). […]

For trastuzumab [mAb2], the “Visible particles on storage” value was “showed visible particles”.
